Cyclic peptide permeability, from CycPeptMPDB

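The data file gives no further conditions (lipid, pH, time, direction or concentration), and values from different papers need not be comparable. The list need not hold all peptides of the study. Entries at the database's floor value (log10 P of -10) are not listed.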

PAMPA is the parallel artificial membrane permeability assay, which has no cells and reads passive diffusion. P is given in units of 10^-6 cm/s (from log10 values with two decimals); larger means faster passage.

| PAMPA (10^-6 cm/s) | SMILES |
|---|---|
| 12 | CC(=O)N1CCC[C@H]1C(=O)N[C@@H]1C(=O)N[C@H](CC(C)C)C(=O)N(C)[C@H](CC(C)C)C(=O)N[C@@H](CC(C)C)C(=O)N[C@H](CC(C)C)C(=O)N(C)[C@@H](C)C(=O)N[C@@H](CC(C)C)C(=O)N2CCC[C@@H]2C(=O)O[C@@H]1C |
| 1.2 | CC(=O)N1CCC[C@H]1C(=O)N(C)[C@H](CC(C)C)C(=O)N[C@@H]1C(=O)N[C@@H](CC(C)C)C(=O)N(C)[C@@H](CC(C)C)C(=O)N[C@@H](CC(C)C)C(=O)N(C)[C@@H](C)C(=O)N[C@H](CC(C)C)C(=O)N2CCC[C@H]2C(=O)O[C@@H]1C |
| 1.4 | CC(=O)N1CCC[C@@H]1C(=O)N(C)[C@H](CC(C)C)C(=O)N[C@@H]1C(=O)N[C@H](CC(C)C)C(=O)N(C)[C@@H](CC(C)C)C(=O)N(C)[C@@H](CC(C)C)C(=O)N(C)[C@@H](C)C(=O)N[C@H](CC(C)C)C(=O)N2CCC[C@H]2C(=O)O[C@@H]1C |
| 5.9 | CC(=O)N1CCC[C@H]1C(=O)N(C)[C@H](CC(C)C)C(=O)N[C@@H]1C(=O)N[C@H](CC(C)C)C(=O)N[C@@H](CC(C)C)C(=O)N(C)[C@H](CC(C)C)C(=O)N[C@H](C)C(=O)N[C@@H](CC(C)C)C(=O)N2CCC[C@@H]2C(=O)O[C@@H]1C |
| 4.8 | CC(=O)N1CCC[C@@H]1C(=O)N(C)[C@@H](CC(C)C)C(=O)N[C@@H]1C(=O)N(C)[C@H](CC(C)C)C(=O)N(C)[C@@H](CC(C)C)C(=O)N(C)[C@@H](CC(C)C)C(=O)N(C)[C@H](C)C(=O)N[C@@H](CC(C)C)C(=O)N2CCC[C@H]2C(=O)O[C@@H]1C |
| 4.6 | CC(=O)N1CCC[C@H]1C(=O)N(C)[C@H](CC(C)C)C(=O)N[C@@H]1C(=O)N[C@H](CC(C)C)C(=O)N[C@@H](CC(C)C)C(=O)N(C)[C@@H](CC(C)C)C(=O)N(C)[C@@H](C)C(=O)N[C@@H](CC(C)C)C(=O)N2CCC[C@@H]2C(=O)O[C@@H]1C |
| 6.8 | CC(=O)N1CCC[C@H]1C(=O)N[C@@H]1C(=O)N[C@H](CC(C)C)C(=O)N(C)[C@H](CC(C)C)C(=O)N[C@@H](CC(C)C)C(=O)N(C)[C@H](CC(C)C)C(=O)N(C)[C@@H](C)C(=O)N[C@@H](CC(C)C)C(=O)N2CCC[C@@H]2C(=O)O[C@@H]1C |
| 5.4 | CC(=O)N1CCC[C@H]1C(=O)N(C)[C@@H](CC(C)C)C(=O)N[C@@H]1C(=O)N(C)[C@@H](CC(C)C)C(=O)N[C@@H](CC(C)C)C(=O)N[C@H](CC(C)C)C(=O)N(C)[C@H](C)C(=O)N[C@@H](CC(C)C)C(=O)N2CCC[C@H]2C(=O)O[C@@H]1C |
| 4.2 | CC(=O)N1CCC[C@H]1C(=O)N(C)[C@H](CC(C)C)C(=O)N[C@@H]1C(=O)N(C)[C@@H](CC(C)C)C(=O)N[C@@H](CC(C)C)C(=O)N(C)[C@@H](CC(C)C)C(=O)N(C)[C@H](C)C(=O)N[C@H](CC(C)C)C(=O)N2CCC[C@@H]2C(=O)O[C@@H]1C |
| 2.3 | CC(=O)N1CCC[C@@H]1C(=O)N(C)[C@@H](CC(C)C)C(=O)N[C@@H]1C(=O)N(C)[C@@H](CC(C)C)C(=O)N[C@@H](CC(C)C)C(=O)N(C)[C@@H](CC(C)C)C(=O)N(C)[C@@H](C)C(=O)N[C@@H](CC(C)C)C(=O)N2CCC[C@H]2C(=O)O[C@@H]1C |
| 6.5 | CC(=O)N1CCC[C@H]1C(=O)N(C)[C@@H](CC(C)C)C(=O)N[C@@H]1C(=O)N[C@H](CC(C)C)C(=O)N[C@@H](CC(C)C)C(=O)N(C)[C@@H](CC(C)C)C(=O)N[C@@H](C)C(=O)N[C@@H](CC(C)C)C(=O)N2CCC[C@@H]2C(=O)O[C@@H]1C |
| 0.23 | CC(=O)N1CCC[C@H]1C(=O)N[C@@H]1C(=O)N[C@H](CC(C)C)C(=O)N[C@@H](CC(C)C)C(=O)N[C@@H](CC(C)C)C(=O)N[C@@H](CC(C)C)C(=O)N(C)[C@@H](C)C(=O)N[C@@H](CC(C)C)C(=O)N2CCC[C@@H]2C(=O)O[C@@H]1C |
| 6.3 | CC(=O)N1CCC[C@@H]1C(=O)N(C)[C@H](CC(C)C)C(=O)N[C@@H]1C(=O)N(C)[C@H](CC(C)C)C(=O)N(C)[C@H](CC(C)C)C(=O)N(C)[C@@H](CC(C)C)C(=O)N(C)[C@H](C)C(=O)N[C@H](CC(C)C)C(=O)N2CCC[C@H]2C(=O)O[C@@H]1C |
| 0.33 | CC(=O)N1CCC[C@@H]1C(=O)N(C)[C@H](CC(C)C)C(=O)N[C@@H]1C(=O)N[C@@H](CC(C)C)C(=O)N(C)[C@H](CC(C)C)C(=O)N(C)[C@H](CC(C)C)C(=O)N[C@@H](C)C(=O)N[C@H](CC(C)C)C(=O)N2CCC[C@@H]2C(=O)O[C@@H]1C |
| 0.03 | CC(=O)N1CCC[C@@H]1C(=O)N(C)[C@@H](CC(C)C)C(=O)N[C@@H]1C(=O)N[C@H](CC(C)C)C(=O)N[C@H](CC(C)C)C(=O)N[C@H](CC(C)C)C(=O)N[C@@H](C)C(=O)N[C@@H](CC(C)C)C(=O)N2CCC[C@H]2C(=O)O[C@@H]1C |

The first 2 entries again:

SMILES	PAMPA (10^-6 cm/s)
CC(=O)N1CCC[C@H]1C(=O)N[C@@H]1C(=O)N[C@H](CC(C)C)C(=O)N(C)[C@H](CC(C)C)C(=O)N[C@@H](CC(C)C)C(=O)N[C@H](CC(C)C)C(=O)N(C)[C@@H](C)C(=O)N[C@@H](CC(C)C)C(=O)N2CCC[C@@H]2C(=O)O[C@@H]1C	12
CC(=O)N1CCC[C@H]1C(=O)N(C)[C@H](CC(C)C)C(=O)N[C@@H]1C(=O)N[C@@H](CC(C)C)C(=O)N(C)[C@@H](CC(C)C)C(=O)N[C@@H](CC(C)C)C(=O)N(C)[C@@H](C)C(=O)N[C@H](CC(C)C)C(=O)N2CCC[C@H]2C(=O)O[C@@H]1C	1.2

Values of Kelly et al. 2021, doi:10.1021/jacs.0c06115, as listed in CycPeptMPDB.